The values that follow come from PubChem BioAssay AID463195 (Sanford-Burnham Center for Chemical Genomics, 2010).

The list shows a part of the results, in another mix than the full data. The source made the active and inactive calls.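 Rule for the calls: active = inhibition of 40% or more at the single tested concentration; inactive = the rest.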

A short description of the assay: growth inhibitors of isogenic TIM10 control yeast, primary screen, counter-screen for tim10-1 yeast inhibitor project, luminescence, uHTS (AID 463195).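 Note: wild-type TIM10 isogenic control strain grown at permissive 25 °C; 0% = DMSO yeast wells and 100% = minimal medium wells without yeast.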 The conditions noted are these: S. cerevisiae TIM10 strain growth, BacTiter-Glo luminescence, 24 h; at 10 µM; stronger effect = higher value.
Consider `Cc1ccc(OCC(C)C)c(CN(CCCl)CCCl)c1`, for which the inhibition was inactive: 17.8%.

As to `CCOC(=O)N1CCC(Nc2cccc(C)c2)CC1`, the inhibition is inactive: -12%.

Turning to `CCOc1ccc(C)cc1CN(CCCl)CCCl`, the inhibition was inactive: -6.37%.

As to `COc1ccc(NC2CCN(CCc3ccccc3)CC2)c(OC)c1`, the inhibition is inactive: -14.9%.

For the compound `CCOC(=O)N1CCC(Nc2ccc(F)cc2)CC1`, the inhibition is active: 65.1%.

In the case of `CCCCOc1ccc(C(=O)NCC2(N3CCOCC3)CCCCC2)cc1`, the inhibition is inactive: 13.3%.

`O=C(NCC1(N2CCCCC2)CCCCC1)c1ccc(F)cc1`: the inhibition was inactive: -12.9%.

Regarding `O=C(NCC1(N2CCOCC2)CCCCC1)c1cc2ccccc2o1`, the inhibition is inactive: 4.51%.

Regarding `Cc1cc(C)cc(N(C(=O)c2ccccc2)C2CCN(C(=O)OC(C)(C)C)CC2)c1`, the inhibition is inactive: -1.53%.

`O=C(NCC1(N2CCCCC2)CCCCC1)c1ccc(Cl)nc1`: the inhibition was inactive: 3.87%.

Consider `CCOC(=O)N1CCC(Nc2ccc(OC)cc2)CC1`, for which the inhibition was inactive: -14.5%.

For `COc1ccc(Cl)cc1C(=O)NCC1(N2CCOCC2)CCCCC1`, the inhibition is inactive: 9.14%.

In the case of `O=C(NCC1(N2CCCCC2)CCCCC1)c1ccc(Cl)s1`, the inhibition was inactive: 2.33%.

Turning to `N#CC1(Nc2ccccc2)CCN(Cc2ccccc2)CC1`, the inhibition was inactive: 5.47%.

For `O=C(OC1CN2CCC1CC2)C1c2ccccc2Oc2ccccc21` (centres undefined), the inhibition was inactive: -22.9%.

With `O=C(NCC1(N2CCCCC2)CCCCC1)c1cccs1`, the inhibition is inactive: 1.41%.

On to `O=C(NCC1(N2CCCCC2)CCCCC1)c1ccc(=O)[nH]c1`, for which the inhibition is inactive: 5.33%.

With `CC(C)(C)OC(=O)N1CCC(N(C(=O)c2ccccc2)c2ccc(F)cc2)CC1`, the inhibition was inactive: 12.4%.

Consider `COc1ccc(C(=O)NCC2(N3CCCCC3)CCCCC2)c(OC)c1OC`, for which the inhibition is inactive: 16.4%.

For `COc1ccc(C(=O)NCC2(N3CCCCC3)CCCCC2)cc1`, the inhibition was inactive: 6.65%.

Turning to `CSc1ccccc1C(=O)NCC1(N2CCCCC2)CCCCC1`, the inhibition was inactive: 5.34%.

As for `CN1CCC(Nc2cccc(F)c2)CC1`, the inhibition was inactive: 1.62%.

With `O=C(NCC1(N2CCCCC2)CCCCC1)c1cncc(Br)c1`, the inhibition is inactive: 3.48%.

Consider `CN(C)c1cccc(C(=O)NCC2(N3CCCCC3)CCCCC2)c1`, for which the inhibition was inactive: 3.7%.

With `COc1ccc(CN(CCCl)CCCl)cc1Cl`, the inhibition is inactive: 12.2%.

`CC(C)c1ccc(NC2CCN(C(=O)OC(C)(C)C)CC2)cc1`: the inhibition is inactive: 33.8%.

`O=C(NCC1(N2CCOCC2)CCCCC1)c1cc(F)c(F)cc1Cl`: the inhibition was inactive: 1.26%.

`COc1cc(OC)c(C(=O)NCC2(N(C)C)CCCCC2)cc1OC`: the inhibition was inactive: -14.2%.

Regarding `O=C(NCC1(N2CCCCC2)CCCCC1)c1cccc(C(F)(F)F)c1`, the inhibition is inactive: 4.87%.

What is called inhibition is the drop in the measured response relative to a control, in per cent.
